# Source: US7618786B2, “Method for identifying modulators of human orexin-2 receptor” (Janssen Pharmaceutica N.V., priority 2002, dated 2009)
# Sequences of proteins named here, by UniProt entry; tags and fusion partners are left off.
# UniProt O43614, whole entry: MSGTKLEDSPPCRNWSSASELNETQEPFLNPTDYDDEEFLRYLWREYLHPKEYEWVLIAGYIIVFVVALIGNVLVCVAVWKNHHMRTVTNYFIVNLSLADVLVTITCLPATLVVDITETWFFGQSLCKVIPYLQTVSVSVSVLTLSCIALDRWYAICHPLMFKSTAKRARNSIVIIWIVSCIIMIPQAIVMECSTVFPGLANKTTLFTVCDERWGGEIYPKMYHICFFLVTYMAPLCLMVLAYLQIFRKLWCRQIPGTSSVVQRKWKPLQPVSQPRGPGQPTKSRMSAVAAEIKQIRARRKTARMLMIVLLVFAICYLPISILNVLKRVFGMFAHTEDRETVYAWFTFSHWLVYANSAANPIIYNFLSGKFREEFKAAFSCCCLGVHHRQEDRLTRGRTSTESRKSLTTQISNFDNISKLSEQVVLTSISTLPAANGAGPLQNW
# Molecular target: T1, human orexin-2 receptor (Homo sapiens, UniProt O43614)
# T1 construct: non-recombinant cell lines that produce the orexin-2 receptor may be utilized; host or cells: PFSK-1 cells (human primitive neuroectodermal tumor line)
# Assay: Fluorescence (Fluo-3, FLIPR) assay of intracellular calcium ion in PFSK-1 cells
# Type: cell-based
# Details: agonist EC50 for intracellular Ca++ increase in PFSK-1 cells, determined on the same plate as the inhibitor of that row; read-out: Orexin B EC50
# Description: Antagonism is analyzed by calculating KB and pKB values for compounds found to inhibit increases in intracellular Ca^++ concentrations in the cells. This is accomplished by determining the EC50 of an orexin agonist and comparing the IC50 values determined from dilutions of antagonist compound(s) on a single multi-well plate of PFSK-1 cells loaded with Fluo-3 AM or a similar dye. In this case, all of the wells, except those used to determine the agonist's EC50, are given the same concentration of the orexin agonist.
# The KB is then determined after Cheng and Prusoff (1973), Biochem. Pharmacol. 22: 3099-3108, using the formula below: KB=IC50/(1+({agonist}/EC50)) […]
# Following the incubation step described in Example 2, changes in intracellular calcium concentrations were measured using the FLIPR instrument (Molecular Probes, Eugene, Oreg.). […] Data were analyzed using the maximum signal minus the minimum signal for each well, in arbitrary fluorescence units. […]
# Antagonism was analyzed by calculating KB and pKB values for compounds found to inhibit increases in intracellular Ca^++ concentrations in the cells. This was accomplished by determining the EC50 of an orexin agonist and comparing the IC50 values determined from dilutions of antagonist compound(s) on a single multi-well plate of PFSK-1 cells loaded with Fluo-3 AM.
# The KB was then determined using the formula of Cheng and Prusoff. […]
substance,measurement,value
"Orexin B: orexin-2 receptor ligand; peptide agonist, cleavage product of pre-pro orexin",EC50,0.013 µM
